Laboratory results: ChEMBL document CHEMBL1154229 (Bioorg Med Chem Lett, 2009)

Sequences of proteins named here, by UniProt entry; tags and fusion partners are left off. A change or cut given only in a name is not applied to a line headed by its entry.
UniProt Q14524, whole entry: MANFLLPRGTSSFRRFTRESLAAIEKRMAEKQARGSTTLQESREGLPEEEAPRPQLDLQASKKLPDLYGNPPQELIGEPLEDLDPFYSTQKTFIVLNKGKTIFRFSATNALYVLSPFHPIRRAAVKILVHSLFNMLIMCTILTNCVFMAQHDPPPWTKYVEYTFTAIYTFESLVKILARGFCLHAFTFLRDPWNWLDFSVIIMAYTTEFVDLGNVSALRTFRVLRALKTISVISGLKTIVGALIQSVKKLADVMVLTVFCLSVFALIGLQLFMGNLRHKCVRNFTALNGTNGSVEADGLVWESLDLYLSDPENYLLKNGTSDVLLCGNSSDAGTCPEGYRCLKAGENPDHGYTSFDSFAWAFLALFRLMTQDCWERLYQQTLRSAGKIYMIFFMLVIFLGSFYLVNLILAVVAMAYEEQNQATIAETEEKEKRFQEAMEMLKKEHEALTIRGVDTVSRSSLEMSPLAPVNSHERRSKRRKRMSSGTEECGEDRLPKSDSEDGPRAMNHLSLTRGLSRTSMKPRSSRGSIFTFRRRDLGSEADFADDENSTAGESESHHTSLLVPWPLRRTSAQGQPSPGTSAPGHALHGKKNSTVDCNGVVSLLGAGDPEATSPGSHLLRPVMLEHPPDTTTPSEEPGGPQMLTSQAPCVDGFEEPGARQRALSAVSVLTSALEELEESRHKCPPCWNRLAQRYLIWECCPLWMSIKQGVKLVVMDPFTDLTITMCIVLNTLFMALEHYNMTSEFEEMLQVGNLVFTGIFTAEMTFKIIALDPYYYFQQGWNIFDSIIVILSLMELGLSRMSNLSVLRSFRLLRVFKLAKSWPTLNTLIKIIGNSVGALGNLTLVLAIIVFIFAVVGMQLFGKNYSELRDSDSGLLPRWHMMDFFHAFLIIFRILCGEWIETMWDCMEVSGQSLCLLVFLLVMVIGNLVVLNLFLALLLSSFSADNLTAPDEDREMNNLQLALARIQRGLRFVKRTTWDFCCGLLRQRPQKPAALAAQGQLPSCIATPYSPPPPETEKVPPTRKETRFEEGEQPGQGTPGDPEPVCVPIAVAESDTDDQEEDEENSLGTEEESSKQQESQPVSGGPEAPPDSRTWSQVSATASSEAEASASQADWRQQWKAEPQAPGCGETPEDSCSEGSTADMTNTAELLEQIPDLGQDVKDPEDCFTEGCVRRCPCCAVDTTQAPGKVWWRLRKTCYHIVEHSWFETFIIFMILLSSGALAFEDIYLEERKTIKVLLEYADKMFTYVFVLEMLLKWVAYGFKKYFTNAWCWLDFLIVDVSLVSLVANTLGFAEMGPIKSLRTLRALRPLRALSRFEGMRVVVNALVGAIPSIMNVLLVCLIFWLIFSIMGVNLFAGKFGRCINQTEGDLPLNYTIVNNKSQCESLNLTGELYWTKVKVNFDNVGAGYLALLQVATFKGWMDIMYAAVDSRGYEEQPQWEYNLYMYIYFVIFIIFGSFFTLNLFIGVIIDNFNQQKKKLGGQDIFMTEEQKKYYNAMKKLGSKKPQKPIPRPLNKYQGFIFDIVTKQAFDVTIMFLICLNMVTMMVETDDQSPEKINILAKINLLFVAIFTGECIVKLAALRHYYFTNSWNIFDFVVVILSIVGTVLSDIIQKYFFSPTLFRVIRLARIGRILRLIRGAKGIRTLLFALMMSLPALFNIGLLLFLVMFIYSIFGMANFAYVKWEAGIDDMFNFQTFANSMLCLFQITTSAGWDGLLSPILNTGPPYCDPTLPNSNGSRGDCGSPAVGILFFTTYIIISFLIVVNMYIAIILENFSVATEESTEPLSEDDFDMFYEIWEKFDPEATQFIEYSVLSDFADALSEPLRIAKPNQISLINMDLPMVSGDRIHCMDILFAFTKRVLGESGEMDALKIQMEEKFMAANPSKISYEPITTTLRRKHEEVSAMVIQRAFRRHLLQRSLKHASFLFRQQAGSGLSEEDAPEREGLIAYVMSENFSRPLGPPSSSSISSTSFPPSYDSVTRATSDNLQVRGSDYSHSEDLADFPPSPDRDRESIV
UniProt P80299: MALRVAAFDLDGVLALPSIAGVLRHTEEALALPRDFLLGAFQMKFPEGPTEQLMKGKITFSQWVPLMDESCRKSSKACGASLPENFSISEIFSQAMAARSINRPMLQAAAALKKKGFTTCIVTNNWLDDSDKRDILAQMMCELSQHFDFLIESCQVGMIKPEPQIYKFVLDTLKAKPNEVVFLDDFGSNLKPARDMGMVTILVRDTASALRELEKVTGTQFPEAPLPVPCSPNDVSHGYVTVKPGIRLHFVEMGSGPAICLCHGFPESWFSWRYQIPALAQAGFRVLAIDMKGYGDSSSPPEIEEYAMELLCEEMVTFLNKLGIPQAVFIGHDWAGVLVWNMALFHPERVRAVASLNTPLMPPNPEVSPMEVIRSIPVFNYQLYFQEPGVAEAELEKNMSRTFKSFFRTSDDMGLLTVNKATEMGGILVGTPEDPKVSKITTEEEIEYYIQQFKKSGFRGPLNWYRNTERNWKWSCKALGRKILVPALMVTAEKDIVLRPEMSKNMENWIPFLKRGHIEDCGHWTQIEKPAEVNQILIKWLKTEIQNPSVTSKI

Assays:
[1] = target: Sodium channel protein type 5 subunit alpha (Homo sapiens, UniProt Q14524); experiment: Inhibition of Nav1.5 channel
[2] = target: Bifunctional epoxide hydrolase 2 (Rattus norvegicus, UniProt P80299); experiment: Inhibition of rat soluble epoxide hydrolase
[3] = target: Bifunctional epoxide hydrolase 2 (Rattus norvegicus) (UniProt P80299); experiment: Inhibition of soluble epoxide hydrolase in rat whole blood assessed as reduction of DHET production at 1 uM after 60 mins relative to control; assay type: tissue-based
[4] = target: Bifunctional epoxide hydrolase 2 (Rattus norvegicus) (UniProt P80299); experiment: Inhibition of soluble epoxide hydrolase in rat whole blood assessed as reduction of DHET production at 1 uM after 30 mins relative to control; assay type: tissue-based
[5] = target: Bifunctional epoxide hydrolase 2 (Rattus norvegicus) (UniProt P80299); experiment: Inhibition of soluble epoxide hydrolase in rat whole blood assessed as reduction of DHET production at 1 uM after 15 mins relative to control; assay type: tissue-based

Structure (SMILES): CC1(c2ccccc2)CCCN(C(=O)NCc2ccc(-c3cccc(Cl)c3)cc2)C1 (stereo not given)
- IC50 [1]: 10 µM

Structure (SMILES): CC1(c2ccccc2)CCCN(C(=O)NCCCc2cccnc2)C1 (stereo not given)
- IC50 [2]: 0.006 µM

Structure (SMILES): O=C(O)CCC1(c2ccccc2)CCCN(C(=O)Nc2ccc(Cl)cc2)C1 (stereo in doubt)
- inhibition [3]: 8.1%
- inhibition [4]: 5.3%
- inhibition [5]: 3.4%
